Assay: Part IV 3×3 crossover study, plasma pharmacokinetics
Assay type: in vivo, human
Details: metabolite in plasma after pyragrel 240 mg, n=12
Experimental: Pyragrel administration regimens are as follows: In the single-escalating-dose study (Part I), a total of 52 subjects are enrolled to receive one of three treatments (pyragrel, ozagrel, or placebo, diluted in 500 Ml normal saline) as a 3-h i.v. infusion. Six dose levels of pyragrel (30, 60,120, 180, 240, 300 mg) were intravenously infused to healthy subjects. Of the 12 subjects each at the first three dose groups (30, 60, and 120 mg), 8 received pyragrel, 2 received ozagrel (80 mg), and 2 received placebo. Eight subjects were assigned as 4/2/2 for pyragrel, ozagrel, and placebo at the 180 mg level. Only four subjects were enrolled at the 240- and 300-mg group each; all received pyragrel. […] In the saline-volume-changed study (Part II), the safety and pharmacokinetics of pyragrel were assessed by decreasing the volume of dilution saline. […] The ranges of quantification were 0.5–1,000 ng/ml for pyragrel and BBS, and 0.25–500 ng/ml for BJS in serum.
Pharmacokinetic parameters were calculated using the noncompartmental model (NCA module), WinNonlin 6.1 (Pharsight Corporation, Mountain View, CA, USA). […]

## COc1cc(CCC(=O)O)ccc1OCc1nc(C)c(C)nc1C [BBS]
  t1/2: 4.85 ± 1.28 h
